The source of these data is PubChem BioAssay AID1466 (National Center for Advancing Translational Sciences (NCATS), 2008).

Structures are written as SMILES. This is one part of the list. Results filed as inconclusive are left out. Calls of active or inactive are those of the source. Calls follow the shape of the dose curve; as a rule, active = well fitted inhibition curve with a large enough effect; inconclusive = small, poorly fitted or top-dose-only effect, or effect the other way, or another doubt; inactive = no such curve, though single readings can be large or run the other way.

The target in the experiment is Lysosomal alpha-glucosidase (Homo sapiens) (UniProt P10253). The experiment can be described thus: qHTS Assay for Inhibitors of Human alpha-Glucosidase as a Potential Chaperone Treatment of Pompe Disease.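 Also: plate controls were uninhibited enzyme wells for no effect and no-enzyme background for full effect.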 The settings on record: purified human GAA, 4-MU-alpha-glucoside fluorescence; at 76.9 µM (top of the series). In general terms: Quantitative high-throughput screening tests each substance at several concentrations.
Take `CCN1CCC(Nc2cccc(F)c2)CC1`: the activity change, negative = inhibition was inactive: -5.67%.

For `CN(C)c1ccc(C(=O)NCC2(N3CCCCC3)CCCCC2)cc1`, the activity change, negative = inhibition was inactive: -3.63%.

For `CCOc1ncccc1C(=O)NCC1(N2CCOCC2)CCCCC1`, the activity change, negative = inhibition is inactive: 0.887%.

In the case of `CC(C)(C)OC(=O)N1CCC(Nc2ccccc2)CC1`, the activity change, negative = inhibition is inactive: -4.31%.

Regarding `COc1cc(OC)cc(C(=O)NCC2(N3CCOCC3)CCCCC2)c1`, the activity change, negative = inhibition was inactive: 6.89%.

Turning to `CCCOc1ccc(C)cc1CN(CCCl)CCCl`, the activity change, negative = inhibition is inactive: -10.3%.

For the compound `COc1ccc(C(=O)NCC2(N3CCOCC3)CCCCC2)cc1OC`, the activity change, negative = inhibition was inactive: -4.57%.

With `N/C(=N\O)c1c(N)no[n+]1[O-]`, the activity change, negative = inhibition was inactive: -2.49%.

Turning to `O=C(OC1CN2CCC1CC2)C1c2ccccc2C=Cc2ccccc21` (centres undefined), the activity change, negative = inhibition was inactive: -1.95%.

With `N#Cc1ccc(C(=O)NCC2(N3CCCCC3)CCCCC2)cc1`, the activity change, negative = inhibition was inactive: -0.631%.

Take `CCOC(=O)C(CC)C1=NC(C)(C)Cc2ccccc21.O=[N+]([O-])c1cc([N+](=O)[O-])c(O)c([N+](=O)[O-])c1` (centres undefined): the activity change, negative = inhibition is inactive: -11%.

In the case of `c1ccc(CN2CCC(Nc3ccccc3)CC2)cc1`, the activity change, negative = inhibition is inactive: 2.49%.

Consider `N#CC1(Nc2ccccc2)CCN(CCc2ccccc2)CC1`, for which the activity change, negative = inhibition was inactive: -0.0267%.

In the case of `O=C(NCC1(N2CCCCC2)CCCCC1)c1cccc([N+](=O)[O-])c1`, the activity change, negative = inhibition was inactive: -12.2%.

As to `O=[N+]([O-])c1cc([N+](=O)[O-])c(NCC2CCS(=O)(=O)C2)c([N+](=O)[O-])c1` (centres undefined), the activity change, negative = inhibition is inactive: -4.89%.

With `O=C(NCC1(N2CCOCC2)CCCCC1)c1cc(=O)[nH]c2ccccc12`, the activity change, negative = inhibition was inactive: -3.13%.

On to `CN1CCN(CCOC(=O)C(O)(c2ccccc2)c2ccccc2)CC1`, for which the activity change, negative = inhibition was inactive: -13.5%.

On to `COc1ccc(NC2CCN(C(=O)OC(C)(C)C)CC2)cc1`, for which the activity change, negative = inhibition was inactive: -7.16%.

Turning to `CC(C)c1ccc(NC2CCN(C(=O)OC(C)(C)C)CC2)cc1`, the activity change, negative = inhibition is inactive: -4.3%.

As for `COc1ccc(CN(CCCl)CCCl)cc1Cl`, the activity change, negative = inhibition is inactive: 11.2%.

Regarding `CN(C)c1cccc(C(=O)NCC2(N3CCCCC3)CCCCC2)c1`, the activity change, negative = inhibition was inactive: -6.04%.

For `O=C(OC1CN2CCC1CC2)c1ccc([N+](=O)[O-])cc1` (centres undefined), the activity change, negative = inhibition was inactive: -4.53%.

For the compound `COc1ccc(C(=O)NCC2(N3CCCCC3)CCCCC2)c(OC)c1OC`, the activity change, negative = inhibition is inactive: -6.8%.

For the compound `O=C(NCC1(N2CCOCC2)CCCCC1)c1cc2ccccc2o1`, the activity change, negative = inhibition is inactive: 0.503%.

In the case of `O=C(OC1CN2CCC1CC2)C1c2ccccc2Oc2ccccc21` (centres undefined), the activity change, negative = inhibition is inactive: -0.735%.

`CCOC(=O)N1CCC(Nc2ccc(OC)cc2)CC1`: the activity change, negative = inhibition was inactive: -23.6%.

Regarding `CCOc1ccc(C)cc1CN(CCCl)CCCl`, the activity change, negative = inhibition is inactive: -12.9%.

In the case of `COc1ccc(NC2CCN(CCc3ccccc3)CC2)c(OC)c1`, the activity change, negative = inhibition was inactive: 0.143%.

On to `Cc1ccc(OCC(C)C)c(CN(CCCl)CCCl)c1`, for which the activity change, negative = inhibition was inactive: -5.23%.
